The target in the test is T1, Sucrase (rat small intestine) (Rattus norvegicus, UniProt P23739).
T1 construct: Sucrase (rat small intestine); from tissue; host or cells: rat small intestine
Nature of the test: Enzyme inhibition: sucrase. The test is classed as biochemical.

Sequences of proteins named here, by UniProt entry; tags and fusion partners are left off. Residues count along the entry.
UniProt P23739, 1014-1841 limits assumed: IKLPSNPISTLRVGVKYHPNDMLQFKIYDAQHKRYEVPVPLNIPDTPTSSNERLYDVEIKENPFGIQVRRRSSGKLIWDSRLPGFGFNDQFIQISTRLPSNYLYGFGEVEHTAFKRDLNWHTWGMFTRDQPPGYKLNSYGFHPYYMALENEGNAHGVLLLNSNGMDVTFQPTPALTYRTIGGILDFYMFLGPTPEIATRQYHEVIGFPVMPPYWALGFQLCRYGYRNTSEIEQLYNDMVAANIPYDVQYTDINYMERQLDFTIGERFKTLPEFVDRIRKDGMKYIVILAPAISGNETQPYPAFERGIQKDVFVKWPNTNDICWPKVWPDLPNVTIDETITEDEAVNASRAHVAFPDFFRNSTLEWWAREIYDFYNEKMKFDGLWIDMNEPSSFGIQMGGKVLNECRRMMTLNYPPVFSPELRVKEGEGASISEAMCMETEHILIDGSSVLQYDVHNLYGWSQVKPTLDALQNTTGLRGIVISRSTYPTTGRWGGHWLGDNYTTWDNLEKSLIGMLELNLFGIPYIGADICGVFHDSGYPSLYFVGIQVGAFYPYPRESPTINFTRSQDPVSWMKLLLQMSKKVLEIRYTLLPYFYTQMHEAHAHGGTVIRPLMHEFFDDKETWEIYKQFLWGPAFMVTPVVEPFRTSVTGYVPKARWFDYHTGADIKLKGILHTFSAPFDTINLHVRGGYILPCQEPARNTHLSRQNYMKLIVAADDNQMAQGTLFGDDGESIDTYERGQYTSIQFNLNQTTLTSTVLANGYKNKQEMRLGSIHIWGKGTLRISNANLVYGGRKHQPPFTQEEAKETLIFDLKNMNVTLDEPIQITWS
UniProt P23739, 1-1013 partner limits assumed: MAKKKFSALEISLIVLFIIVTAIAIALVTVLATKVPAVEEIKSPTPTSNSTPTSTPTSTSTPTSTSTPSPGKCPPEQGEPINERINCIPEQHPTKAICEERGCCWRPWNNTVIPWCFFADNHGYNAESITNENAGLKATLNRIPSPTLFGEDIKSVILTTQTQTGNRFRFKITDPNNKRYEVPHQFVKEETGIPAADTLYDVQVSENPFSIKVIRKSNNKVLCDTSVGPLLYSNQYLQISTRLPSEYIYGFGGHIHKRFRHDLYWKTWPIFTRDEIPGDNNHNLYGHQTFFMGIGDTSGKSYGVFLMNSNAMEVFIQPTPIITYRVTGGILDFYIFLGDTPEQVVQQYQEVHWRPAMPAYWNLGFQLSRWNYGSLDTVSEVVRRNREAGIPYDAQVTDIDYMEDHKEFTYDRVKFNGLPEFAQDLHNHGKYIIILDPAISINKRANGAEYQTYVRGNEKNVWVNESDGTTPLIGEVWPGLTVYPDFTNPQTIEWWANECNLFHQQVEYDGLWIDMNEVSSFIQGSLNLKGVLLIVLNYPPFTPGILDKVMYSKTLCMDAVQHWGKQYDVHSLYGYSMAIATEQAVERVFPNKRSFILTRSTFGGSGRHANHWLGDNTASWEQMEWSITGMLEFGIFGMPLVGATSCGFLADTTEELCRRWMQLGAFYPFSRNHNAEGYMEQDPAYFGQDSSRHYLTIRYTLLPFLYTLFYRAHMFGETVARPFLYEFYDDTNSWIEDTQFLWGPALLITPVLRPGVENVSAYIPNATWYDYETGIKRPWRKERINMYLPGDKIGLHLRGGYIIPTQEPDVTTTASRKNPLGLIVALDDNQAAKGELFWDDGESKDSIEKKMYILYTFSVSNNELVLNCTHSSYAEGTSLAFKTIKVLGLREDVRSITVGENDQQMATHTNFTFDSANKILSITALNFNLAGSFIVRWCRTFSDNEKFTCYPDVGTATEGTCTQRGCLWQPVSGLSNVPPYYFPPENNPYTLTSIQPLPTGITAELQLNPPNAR

In the case of `C[C@H]1O[C@H](O[C@H]2[C@H](O)[C@@H](O)[C@@H](O[C@H]3[C@H](O)[C@@H](O)C(O)O[C@@H]3CO)O[C@@H]2CO)[C@H](O)[C@@H](O)[C@@H]1N[C@H]1C=C(CO)[C@@H](O)[C@H](O)[C@H]1O` (stereo partly shown) [acarbose], the midpoint of inhibition, the IC50, lay at 6.51 µM.
